Values quoted from earlier work as cited in patent US10695437B2, “Polycomplexes of poly-lysine compounds for preventing and/or combatting amyotrophic lateral sclerosis” (GEMAC, priority 2016, dated 2020).

System: ALS
Details: ALS patients

SMILES: Nc1nc2ccc(OC(F)(F)F)cc2s1 [Riluzole]
- Additional median survival offered to the patient: three to six
